In general, IC50 refers to the concentration at which inhibition is half-maximal.

Amino acid sequences for entries named in this document (tags omitted). Residues count along the entry.
UniProt Q9Y6K9, 1-196, species assumed: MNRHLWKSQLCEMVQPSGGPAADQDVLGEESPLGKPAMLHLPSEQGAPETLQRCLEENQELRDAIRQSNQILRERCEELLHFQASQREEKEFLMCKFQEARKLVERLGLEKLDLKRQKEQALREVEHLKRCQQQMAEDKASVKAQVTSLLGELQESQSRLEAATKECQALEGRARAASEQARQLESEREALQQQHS
UniProt P35222, whole entry: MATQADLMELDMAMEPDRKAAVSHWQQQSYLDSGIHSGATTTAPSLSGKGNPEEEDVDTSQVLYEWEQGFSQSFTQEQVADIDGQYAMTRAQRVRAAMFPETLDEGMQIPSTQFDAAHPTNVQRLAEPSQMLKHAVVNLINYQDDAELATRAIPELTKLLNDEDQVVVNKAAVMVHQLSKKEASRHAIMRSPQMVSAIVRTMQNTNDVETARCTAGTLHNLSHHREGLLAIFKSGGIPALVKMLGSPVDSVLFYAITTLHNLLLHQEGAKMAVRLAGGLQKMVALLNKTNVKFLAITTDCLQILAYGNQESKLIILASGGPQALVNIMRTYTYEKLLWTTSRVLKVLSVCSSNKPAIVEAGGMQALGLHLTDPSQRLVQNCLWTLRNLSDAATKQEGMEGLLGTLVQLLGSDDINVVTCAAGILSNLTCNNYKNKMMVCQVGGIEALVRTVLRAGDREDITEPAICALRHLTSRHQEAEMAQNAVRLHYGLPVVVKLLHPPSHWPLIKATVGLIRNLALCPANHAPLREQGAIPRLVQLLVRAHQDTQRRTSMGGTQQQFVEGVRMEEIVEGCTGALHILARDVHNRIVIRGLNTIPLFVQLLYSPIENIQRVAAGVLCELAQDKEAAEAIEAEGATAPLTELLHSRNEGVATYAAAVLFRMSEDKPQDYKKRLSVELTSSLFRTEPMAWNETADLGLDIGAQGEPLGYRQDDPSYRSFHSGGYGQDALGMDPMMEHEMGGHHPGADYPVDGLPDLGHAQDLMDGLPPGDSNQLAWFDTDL

One assay has as its target T1, NEMO (Homo sapiens, UniProt Q9Y6K9).
T1 construct: made in house; host or cells: E. coli BL21 (DE3)
As to the kind of experiment: Competitive homogeneous time-resolved fluorescence (HTRF) assay for NEMO binding (GST-NEMO / biotin-IKKβKK/RR). A general note: In TR-FRET formats the signal depends on donor and acceptor labels being close together.
For `CC(C)C[C@H](NC(=O)[C@H](C)NC(=O)[C@@H](NC(=O)[C@H](CO)NC(=O)[C@H](CO)NC(=O)[C@H](CC(=O)O)NC(=O)[C@H](CC(=O)O)NC(=O)[C@H](CO)NC(=O)[C@H](CCCCN)NC(=O)[C@@H](N)CC(C)C)[C@@H](C)O)C(=O)N[C@@H](CC(=O)O)C(=O)N[C@@H](Cc1c[nH]c2ccccc12)C(=O)N[C@@H](CO)C(=O)N[C@@H](Cc1c[nH]c2ccccc12)C(=O)N[C@@H](CC(C)C)C(=O)N[C@@H](CCC(N)=O)C(=O)N[C@H](C(=O)N[C@@H](CCC(=O)O)C(N)=O)[C@@H](C)O` [NBD+12], the IC50 worked out at 75000 nM.

In the next assay the target is GST-NEMO (UniProt Q9Y6K9). As to the kind of experiment: AlphaScreen or HTRF.
NBD+1 (Fine-tune3) (peptide) displayed an IC50 greater than 100000 nM.

Consider NBD+4 (Fine-tune3) (peptide), for which the IC50 is greater than 100000 nM.

The target in a further assay is T2, GST-β-catenin (Homo sapiens, UniProt P35222). As to the kind of experiment: fluorescence polarisation. (In fluorescence polarisation assays a small probe gives low polarisation when free and higher when bound to something large.)
Take “CAL-9 (Fine-tune3) (peptide; other documents disagree on this pair)”: the IC50 was determined as 300 nM. This lies in the sub-micromolar range.

With “CAL-10 (Fine-tune2) (peptide; other documents disagree on this pair)”, the IC50 was found to be 200 nM.

The compound “CAL-4 (Fine-tune2) (peptide; other documents disagree on this pair)” displayed an IC50 of 70 nM.

For “NAL-9 (peptide; other documents disagree on this pair)”, the IC50 stood at 84 nM.

For the compound “CAL-3 (Fine-tune1) (peptide; other documents disagree on this pair)”, the IC50 is 89 nM.

In turn, “NAL-6 (peptide; other documents disagree on this pair)” showed an IC50 of 100 nM.

“CAL-7 (human error) (peptide; other documents disagree on this pair)” had an IC50 of 1400 nM.

On to “CAL-2 (Fine-tune3) (peptide; other documents disagree on this pair)”, for which the IC50 is 10 nM.

Regarding “NAL-10 (peptide; other documents disagree on this pair)”, the IC50 is greater than 3000 nM.

Compound “CAL-6 (Fine-tune2) (peptide; other documents disagree on this pair)” showed a half-inhibitory concentration (IC50) of 240 nM.

In the case of “NAL-4 (peptide; other documents disagree on this pair)”, the IC50 was 170 nM.

Consider “CAL-1 (Fine-tune3) (peptide; other documents disagree on this pair)”, for which the IC50 is 78 nM.

For the next assay, the target named is T2, GST-β-catenin. As to the kind of experiment: Competitive fluorescence polarization (FP)-based binding assay against β-catenin. Also noted: Expression and purification of GST-β-catenin has been reported previously; made in house.
On to `CC[C@H](C)[C@@H]1NC(=O)[C@@H](NC(=O)[C@H](CCC(=O)O)NC(=O)[C@@H]2CCCN2C(=O)[C@H](Cc2ccc(O)cc2)NC(=O)[C@H](CCC(N)=O)NC(=O)[C@H](CCCCN)NC(=O)[C@H](CCC(=O)O)NC(=O)CNC(=O)[C@@H](N)CCC(=O)O)CC(=O)NCCCC[C@@H](C(=O)N[C@@H](Cc2c[nH]cn2)C(=O)N[C@@H](CC(C)C)C(=O)N[C@@H](CCC(N)=O)C(=O)N[C@@H](CCCNC(=N)N)C(=O)N[C@H](C(=O)N[C@H](C(=O)N[C@@H](CC(C)C)C(N)=O)[C@@H](C)CC)C(C)C)NC(=O)[C@H](CC(=O)O)NC(=O)[C@H](CC(C)C)NC1=O` [NAL-9], for which the “fold improvement of β-catenin binding over the parent peptide” value is reported as “approximately twofold better than the parent peptide”.

Source of the values: publication PMC10882002, “Design of target specific peptide inhibitors using generative deep learning and molecular dynamics simulations” (Nature Communications, 2024).
